Test results taken from patent publication US20250295642A1, “FLUOROQUINOXALINONE DERIVATIVE FOR SELECTIVELY INHIBITING PARP1” (MEDSHINE DISCOVERY INC., priority 2022, published 2025).

Legend:
[1] = Brain penetration evaluation in rats; conditions: PO 5 mg/kg, 2-hour time point, tested form: TFA salt
[2] = In vivo pharmacokinetic evaluation in mice; conditions: for C0 / Cmax: compound 16 salt female BALB/C, compound 15 salt male CD-1, tested form: TFA salt; for AUC0-last / Cl / T1/2 / Tlast / Vdss / Tmax: tested form: TFA salt
MDR1-MDCK II cell line = test: Permeability evaluation on MDR1-MDCK II cell line; assay type: in vitro ADME
[3] = Brain penetration evaluation in mice; conditions: PO 10 mg/kg, 2-hour time point, tested form: TFA salt
DLD1 (BRCA2 KO) cells = test: Anti-proliferation assay on DLD1 cells (BRCA2 KO); assay type: cell-based; conditions: read-out: IC50, anti-proliferation on DLD1 (BRCA2 KO) cells, incubated for 7 days, chemiluminescent cell viability
[4] = Pharmacokinetic evaluation in rats; conditions: male SD rats, tested form: TFA salt
[5] = test system: human breast cancer MDA-MB-436 cell subcutaneous xenograft tumor; test: In vivo pharmacodynamic study, MDA-MB-436 subcutaneous xenograft tumor model; conditions: 1.0 mg/kg p.o. once daily, tested form: TFA salt
[6] = test system: MDA-MB-436 cells (BRCA1 mutation); test: Anti-proliferation assay on MDA-MB-436 cells (BRCA1 mutation); conditions: read-out: IC50, proliferation inhibition on MDA-MB-436 cells (BRCA1 mutation), incubated for 7 days, chemiluminescent cell viability
[7] = In vitro liver microsomal stability, human liver microsomes; conditions: 1 μM, 0.5 mg/mL, NADPH, up to 60 minutes, tested form: TFA salt
[8] = In vitro liver microsomal stability, mouse liver microsomes; conditions: tested form: TFA salt
[9] = 2.00 μM, 150 minutes, pH 7.40, tested form: TFA salt

For CNC(=O)c1ccc(N2CCN(Cc3ccc4c([nH]c(=O)c5cccnc54)c3F)CC2)c(F)n1 [Compound 15], the Brain-to-plasma drug concentration ratio [1] was 0.7, the “C2 h Brain drug concentration” value [1] was 5.814 µM and the “C2 h Plasma drug concentration” value [1] was 8.467 µM. For the same compound, the C0 ([2]; IV 2 mg/kg) was 4.21 µM, the AUC0-last ([2]; IV 2 mg/kg) was 9.23 µM·h and the Cl ([2]; IV 2 mg/kg) was 7.7 mL/min/kg. It also gave a T1/2 ([2]; IV 2 mg/kg) of 3.7 h, a Tlast ([2]; IV 2 mg/kg) of 24.0 h and a Vdss ([2]; IV 2 mg/kg) of 2.1 L/kg. For the same compound, the Cmax ([2]; PO 10 mg/kg) was 13.7 µM, the AUC0-last ([2]; PO 10 mg/kg) was 61.6 µM·h and the T1/2 ([2]; PO 10 mg/kg) was 4.1 h. The Tlast ([2]; PO 10 mg/kg) was 24.0 h, the Tmax ([2]; PO 10 mg/kg) was 0.25 h and the “Permeability Papp A to B” value (MDR1-MDCK II cell line; [9]) was 25.2 10^−6 cm/s. For the same compound, the “Permeability Papp B to A” value (MDR1-MDCK II cell line; [9]) was 17.7 10^−6 cm/s, the Efflux ratio (MDR1-MDCK II cell line; 2.00 μM, tested form: TFA salt) was 0.703 and the Permeability conclusion (MDR1-MDCK II cell line; tested form: TFA salt) was “High”. The Brain-to-plasma drug concentration ratio [3] was 0.7, the “C2 h Brain drug concentration” value [3] was 5.814 µM and the “C2 h Plasma drug concentration” value [3] was 8.467 µM. For the same compound, the pIC50 (DLD1 (BRCA2 KO) cells; tested form: TFA salt) was 8.77, the AUC0-last ([4]; IV 1 mg/kg) was 5.82 µM·h and the C0 ([4]; IV 1 mg/kg) was 2.12 µM. It also gave a Cl ([4]; IV 1 mg/kg) of 6.0 mL/min/kg, a T1/2 ([4]; IV 1 mg/kg) of 5.2 h and a Tlast ([4]; IV 1 mg/kg) of 24.0 h. The Vdss ([4]; IV 1 mg/kg) was 2.1 L/kg, the “F (bioavailability)” value ([4]; PO 5 mg/kg, calculated using AUC0-last) was 78% and the AUC0-last ([4]; PO 5 mg/kg) was 22.9 µM·h. The Cmax ([4]; PO 5 mg/kg) was 2.83 µM, the T1/2 ([4]; PO 5 mg/kg) was 3.3 h and the Tlast ([4]; PO 5 mg/kg) was 24.0 h. For the same compound, the Tmax ([4]; PO 5 mg/kg) was 4 h, the “T/C (relative tumor proliferation rate) D24” value [5] was 14% and the “TGI (tumor growth inhibition rate) D24” value [5] was 104%. For the same compound, the pIC50 ([6]; tested form: TFA salt) was 8.80.

Work on [2H]C([2H])([2H])NC(=O)c1ccc(N2CCN(Cc3ccc4c([nH]c(=O)c5cccnc54)c3F)CC2)c(Cl)n1 yielded a pIC50 [6] of 9.44.

Work on CNC(=O)c1ccc2c(n1)CC[C@H]1CN(Cc3ccc4nc(C)c(=O)[nH]c4c3F)CCN21 yielded a C0 ([2]; IV 2 mg/kg) of 14 µM, an AUC0-last ([2]; IV 2 mg/kg) of 17.915 µM·h and a Cl ([2]; IV 2 mg/kg) of 4.0 mL/min/kg. The T1/2 ([2]; IV 2 mg/kg) was 0.25 h, the Tlast ([2]; IV 2 mg/kg) was 24.0 h and the Vdss ([2]; IV 2 mg/kg) was 1.54 L/kg. For the same compound, the Cmax ([2]; PO 10 mg/kg) was 42.7 µM, the AUC0-last ([2]; PO 10 mg/kg) was 173.382 µM·h and the T1/2 ([2]; PO 10 mg/kg) was 2 h. The Tlast ([2]; PO 10 mg/kg) was 24.0 h and the Tmax ([2]; PO 10 mg/kg) was 0.5 h.

In the case of CNC(=O)c1ccc2c(n1)CC[C@H]1CN(Cc3cc(F)c4nc(C)c(=O)[nH]c4c3F)CCN21, the pIC50 (DLD1 (BRCA2 KO) cells) was 8.00.

For CNC(=O)c1ccc2c(n1)OC[C@H]1CN(Cc3ccc4nc(C)c(=O)[nH]c4c3F)CCN21, the “CLint(liver)” value [7] was <8.6 mL/min/kg and the “CLint(liver)” value [8] was <38 mL/min/kg.

pIC50: −log10 of the molar value. Like-named read-outs stand apart in the source and are kept apart here.
